The target of this assay is T1, EGFR (Homo sapiens, UniProt P00533).
T1 construct: A549 cells, which endogenously express EGFR; endogenous in cells; host or cells: A549 cells stably transfected with the TagGFP:2x(SH2)Grb2 biosensor (a TurboGFP:2x(SH2)Grb2 biosensor for the heregulin test)
As to the kind of experiment: Inhibition of EGF-induced TagGFP:2×(SH2)Grb2 biosensor relocalization. It is filed as cell-based.

Each structure is given as a SMILES string.

For `COc1cc2ncnc(Nc3cccc(Cl)c3)c2cc1OC` [AG 1478, tyrphostin AG 1478], for the setting “1 μM AG 1478, then 1 μg/mL EGF, 3 min following EGF treatment”, the “Translocation of TagGFP:2×(SH2)Grb2 to the plasma membrane” value is listed as “blocked”. Besides, the “Internalization of TagGFP:2×(SH2)Grb2” value (1 μM AG 1478, then 1 μg/mL EGF, 50 min following EGF treatment) was “also blocked”. In addition, the “Relocalization of the TagGFP:2×SH2Grb2 biosensor” value (FIG. 7, absence or presence of 1 μg/mL of EGF) is listed as “inhibits relocalization”.

The values are drawn from patent US20130059362A1, “BIOSENSORS COMPRISING PROTEIN-BINDING DOMAINS AND FLUORESCENT PROTEINS” (SIGMA-ALDRICH CO., LLC, priority 2010, published 2013).
